# Ab-14 heavy chain CDR variants: yeast mating affinities

Antigen: PDVDLGDISGINAS, a 14-residue peptide of the SARS-CoV-2 spike HR2 region.

Parent scFv Ab-14: VH joined to VL by a (GGGGS)3 linker. Changes lie in the heavy chain CDRs alone.
VH: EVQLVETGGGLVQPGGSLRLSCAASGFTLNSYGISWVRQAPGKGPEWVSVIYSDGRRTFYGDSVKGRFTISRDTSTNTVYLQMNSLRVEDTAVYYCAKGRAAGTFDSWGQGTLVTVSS
VL: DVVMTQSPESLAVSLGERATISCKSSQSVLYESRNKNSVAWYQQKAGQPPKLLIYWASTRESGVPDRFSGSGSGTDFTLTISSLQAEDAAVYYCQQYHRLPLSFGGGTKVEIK

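This is the validation round: designs drawn from the data on random variants, tested in the same kind of assay. Several design methods are mixed in this list. The scFvs were displayed on barcoded MATa yeast, the peptide on MATalpha yeast. Binding brings cells together so that they mate, and sequencing counts the barcode pairs among the diploids. Scores were corrected for input abundance and mapped to Kd with protein pairs of known affinity run in the same pool. Mating was done six times.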

Substitutions are numbered in sequence along the VH above, starting at 1 (not Kabat).
This list holds designs with at most six substitutions.
Values are apparent Kd, the geometric mean of the replicates that gave a signal; lower means stronger binding.
"nd" marks a missing value. The strain was present, yet no cells mated with the target were sequenced in any replicate, which points to weak or no binding.
Order: sorted from the lowest average up, undetected variants last.
Of ten entries with the parent sequence, four were seen in most replicates (averages 2.2 nM to 240 nM), three in one and three in none, so single entries are noisy.
In the paper, a design with two or fewer of six values counts as a poor binder.
Background: pairings of all heavy chain designs with three empty control strains gave a value in 1% of cases (median 120 nM, 5th percentile 7.0 nM). Values in that range, when seen in few replicates, are hard to tell from nonspecific mating.
The range of this assay differs from that of the first round, and the authors advise against merging the two.

* T28S+S31E+A101E -> 300 pM (6 of 6 replicates)
* T28S+S53A+R100Q+S107A -> 500 pM (6 of 6 replicates)
* T28G+R100M+A101Q -> 2.2 nM (2 of 6 replicates)
* N30E+S53A+R100Q+S107K -> 2.3 nM (6 of 6 replicates)
* Y32Q+G61H+R100M+A101P -> 2.7 nM (6 of 6 replicates)
* T28S+R100A+A101T+S107R -> 2.9 nM (6 of 6 replicates)
* T28D+R56Q+G61V+A101T -> 3.4 nM (6 of 6 replicates)
* S31D+S107T -> 3.5 nM (6 of 6 replicates)
* T28S+G61A+R100Q+S107D -> 4.4 nM (6 of 6 replicates)
* S31D+F59W+A101Q -> 7.7 nM (5 of 6 replicates)
* T28N+G61V+A101N -> 8.7 nM (6 of 6 replicates)
* S31E+R56M+A101Q -> 10 nM (6 of 6 replicates)
* T28D+G61A+S63Q+A101T -> 11 nM (3 of 6 replicates)
* T28H+A101T+S107A -> 11 nM (6 of 6 replicates)
* N30D+D106S+S107V -> 16 nM (1 of 6 replicates)
* T28D+G61I+A101Q+S107T -> 31 nM (4 of 6 replicates)
* N30E+R56M+G61V+A101T -> 68 nM (2 of 6 replicates)
* T28E+I34V+G103L+S107T -> 71 nM (3 of 6 replicates)
* S31D+F59Q+G61M+A101T -> 1.3 µM (3 of 6 replicates)
* S31E+T58A+G61T+A101S -> 1.6 µM (1 of 6 replicates)
* F27Y+T28H+S63D+R100D -> nd (0 of 6 replicates)
* F27Y+T28S+F105S+D106P -> nd (0 of 6 replicates)
* G26T+D106N -> nd (0 of 6 replicates)
* N30R+V64T+A102R+S107V -> nd (0 of 6 replicates)
* T28Q+R56Q+A101P -> nd (0 of 6 replicates)
* G26S+T28E+G61V+R100Q+A101T -> nd (0 of 6 replicates)
* F59A+K65A+A101E+A102H -> nd (0 of 6 replicates)
* R56E+A101D+F105V -> nd (0 of 6 replicates)
* T28G+G33D+R100I+F105S -> nd (0 of 6 replicates)
* S31E+D106T+S107C -> nd (0 of 6 replicates)

From the list, the first 5 with no signal in any replicate:

| changes | Kd (apparent) | detected |
|---|---|---|
| F27Y+T28H+S63D+R100D | nd | 0/6 |
| F27Y+T28S+F105S+D106P | nd | 0/6 |
| G26T+D106N | nd | 0/6 |
| N30R+V64T+A102R+S107V | nd | 0/6 |
| T28Q+R56Q+A101P | nd | 0/6 |

Values reported by Li et al. 2023, doi:10.1038/s41467-023-39022-2 (FLAb copy).